The values below come from US20040029178A1, “Novel g protein-coupled receptor proteins and dnas thereof” (priority 2000, published 2004).

Each structure is given as a SMILES string.

Experiment [1] has as its target T1, TGR26 (Rattus norvegicus, UniProt Q56UD9).
T1 construct: expressed in transfected cells; whole cells in A1, membrane fraction in A2 and A3
T1 sequence (Q56UD9 1-329): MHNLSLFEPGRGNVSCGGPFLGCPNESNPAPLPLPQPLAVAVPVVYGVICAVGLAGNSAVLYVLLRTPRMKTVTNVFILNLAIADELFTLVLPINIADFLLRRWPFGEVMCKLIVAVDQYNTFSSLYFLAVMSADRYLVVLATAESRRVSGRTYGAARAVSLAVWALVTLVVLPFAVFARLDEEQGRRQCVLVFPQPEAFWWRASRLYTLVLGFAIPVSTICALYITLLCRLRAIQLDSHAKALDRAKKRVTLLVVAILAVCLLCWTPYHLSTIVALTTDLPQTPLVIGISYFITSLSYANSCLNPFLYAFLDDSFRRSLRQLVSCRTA
As to the kind of experiment: Inhibition of intracellular cAMP production using TGR26 expressing CHO cells. The format is cell-based. Conditions: 2 μM forskolin, various concentrations. The protocol:
TGR26 expressing CHO cells prepared in Example 3 were seeded on 24-well plate at 5×10^4 cells/well and cultivated for 48 hours. The cells were washed with MEMα buffer (pH 7.4) containing 0.2 mM 3-isobutyl-methylxanthine, 0.05% BSA (bovine serum albumine) and 20 mM HEPES [hereafter, MEMα buffer (pH 7.4) containing 0.2 mM 3-isobutyl-methylxanthine, 0.05% BSA (bovine serum albumine) and 20 mM HEPES may be referred to as reaction buffer]. Then, 0.5 ml of the reaction buffer was added to the cells and the suspension was incubated for 30 minutes in the incubator. […] The cAMP level in the extract was measured using the cAMP EIA Kit (Amersham Pharmacia Biotech).
The human homologue of GPR8 ligand peptide consisting of 23 residues represented by […], which was obtained in Reference Example 12 (hereafter, sometimes referred to as hGPR8L (1-23)), or the human homologue of GPR8 ligand peptide consisting of 30 residues represented by […], which was obtained in Reference Example 13 (hereafter, sometimes referred to as hGPR8L (1-30)) was administered at various concentrations to […] TGR26 expressing CHO cells by the method described in Example 4, and an inhibiting activity of intracellular cAMP production was measured. […]

Experiment [2] has as its target T1, TGR26. As to the kind of experiment: GTPγS binding activity using a membrane fraction of TGR26 expressing CHO cells. The format is biochemical. Conditions: various concentrations. The method, then: Promoting activity for [^35S]-guanosine 5′-(γ-thio) triphosphate (GTPγS) binding to a membrane fraction of TGR26 expressing cells was assayed in accordance with the following method.
To 1×10^8 of TGR26 expressing CHO cells, 10 ml of homogenating buffer (10 mM NaHCO3, 5 mM EDTA, 0.5 mM PMSF (phenylmethylsulfonyl fluoride), 1 μg/ml Pepstatin, 4 μg/ml E-64, 20 μg/ml Leupeptin) was added, and the cells were disrupted using Polytron (12,000 rpm, 1 minute). Supernatant was obtained from the disrupted cell suspension by centrifugation (1,000 g, 15 minutes). In addition, the supernatant was ultracentrifuged (Beckman Type 30 rotor, 30,000 rpm, 1 hour), and precipitate obtained was kept as a membrane fraction of TGR26 expressing CHO cells.
The membrane fraction of TGR26 expressing CHO cells was diluted with membrane dilution buffer (50 mM Tris HCl buffer (pH 7.4), 5 mM MgCl2, 150 mM NaCl, 1 μM GDP, 0.1% BSA) to prepare a cell membrane fraction solution for assay at 30 μg/ml of protein concentration. To 200 μl of membrane fraction solution for assay, 2 μl of 50 nM [^35S]-guanosine 5′-(γ-thio) triphosphate (NEN) and 2 μl of sample/DMSO solution having an appropriate concentration were added. Then the mixture was incubated at 25° C. for one hour. […] Finally, a radioactivity on the filter was determined by liquid scintillation counter. […]
For orientation: GTPγS is a poorly hydrolysed GTP analogue; its binding reports G protein activation.

For `CSCC[C@H](NC(=O)[C@H](CC(C)C)NC(=O)[C@H](CC(C)C)NC(=O)CNC(=O)[C@H](C)NC(=O)[C@H](C)NC(=O)[C@H](CCCNC(=N)N)NC(=O)CNC(=O)[C@@H](NC(=O)[C@@H](NC(=O)[C@H](Cc1c[nH]cn1)NC(=O)[C@H](Cc1ccc(O)cc1)NC(=O)[C@H](CCCNC(=N)N)NC(=O)[C@@H]1CCCN1C(=O)[C@H](CO)NC(=O)[C@H](C)NC(=O)[C@@H](NC(=O)[C@H](Cc1c[nH]cn1)NC(=O)[C@H](CCCCN)NC(=O)[C@H](Cc1ccc(O)cc1)NC(=O)[C@@H](N)Cc1c[nH]c2ccccc12)C(C)C)[C@@H](C)O)C(C)C)C(=O)NCC(=O)N[C@@H](CC(C)C)C(=O)O` [hGPR8L (1-23)], the “inhibiting activity of intracellular cAMP production” value on TGR26 [1] is recorded as “inhibited intracellular cAMP production of TGR26 expressing CHO cells depending on the concentration”. Moreover, the “promoting activity of GTPγS binding” value on TGR26 [2] is “promoted GTPγS binding of TGR26 expressing CHO cells depending on the concentration”.

With `CSCC[C@H](NC(=O)[C@H](CC(C)C)NC(=O)[C@H](CC(C)C)NC(=O)CNC(=O)[C@H](C)NC(=O)[C@H](C)NC(=O)[C@H](CCCNC(=N)N)NC(=O)CNC(=O)[C@@H](NC(=O)[C@@H](NC(=O)[C@H](Cc1c[nH]cn1)NC(=O)[C@H](Cc1ccc(O)cc1)NC(=O)[C@H](CCCNC(=N)N)NC(=O)[C@@H]1CCCN1C(=O)[C@H](CO)NC(=O)[C@H](C)NC(=O)[C@@H](NC(=O)[C@H](Cc1c[nH]cn1)NC(=O)[C@H](CCCCN)NC(=O)[C@H](Cc1ccc(O)cc1)NC(=O)[C@@H](N)Cc1c[nH]c2ccccc12)C(C)C)[C@@H](C)O)C(C)C)C(=O)NCC(=O)N[C@@H](CC(C)C)C(=O)N[C@@H](CCCNC(=N)N)C(=O)N[C@@H](CCCNC(=N)N)C(=O)N[C@@H](CO)C(=O)N1CCC[C@H]1C(=O)N[C@@H](Cc1ccc(O)cc1)C(=O)N[C@@H](CC(C)C)C(=O)N[C@@H](Cc1c[nH]c2ccccc12)C(=O)O` [hGPR8L (1-30)], the “inhibiting activity of intracellular cAMP production” value on TGR26 [1] is given as “inhibited intracellular cAMP production of TGR26 expressing CHO cells depending on the concentration”. Also, the “promoting activity of GTPγS binding” value at TGR26 [2] is given as “promoted GTPγS binding of TGR26 expressing CHO cells depending on the concentration”.
